Assay results: US9890152B2 (Genentech, Inc., priority 2012, dated 2018)

Chains of the proteins cited; added tags and fusions are not shown. Residues count along the entry.
UniProt P00533, 25-1210 T790M/L858R limits assumed: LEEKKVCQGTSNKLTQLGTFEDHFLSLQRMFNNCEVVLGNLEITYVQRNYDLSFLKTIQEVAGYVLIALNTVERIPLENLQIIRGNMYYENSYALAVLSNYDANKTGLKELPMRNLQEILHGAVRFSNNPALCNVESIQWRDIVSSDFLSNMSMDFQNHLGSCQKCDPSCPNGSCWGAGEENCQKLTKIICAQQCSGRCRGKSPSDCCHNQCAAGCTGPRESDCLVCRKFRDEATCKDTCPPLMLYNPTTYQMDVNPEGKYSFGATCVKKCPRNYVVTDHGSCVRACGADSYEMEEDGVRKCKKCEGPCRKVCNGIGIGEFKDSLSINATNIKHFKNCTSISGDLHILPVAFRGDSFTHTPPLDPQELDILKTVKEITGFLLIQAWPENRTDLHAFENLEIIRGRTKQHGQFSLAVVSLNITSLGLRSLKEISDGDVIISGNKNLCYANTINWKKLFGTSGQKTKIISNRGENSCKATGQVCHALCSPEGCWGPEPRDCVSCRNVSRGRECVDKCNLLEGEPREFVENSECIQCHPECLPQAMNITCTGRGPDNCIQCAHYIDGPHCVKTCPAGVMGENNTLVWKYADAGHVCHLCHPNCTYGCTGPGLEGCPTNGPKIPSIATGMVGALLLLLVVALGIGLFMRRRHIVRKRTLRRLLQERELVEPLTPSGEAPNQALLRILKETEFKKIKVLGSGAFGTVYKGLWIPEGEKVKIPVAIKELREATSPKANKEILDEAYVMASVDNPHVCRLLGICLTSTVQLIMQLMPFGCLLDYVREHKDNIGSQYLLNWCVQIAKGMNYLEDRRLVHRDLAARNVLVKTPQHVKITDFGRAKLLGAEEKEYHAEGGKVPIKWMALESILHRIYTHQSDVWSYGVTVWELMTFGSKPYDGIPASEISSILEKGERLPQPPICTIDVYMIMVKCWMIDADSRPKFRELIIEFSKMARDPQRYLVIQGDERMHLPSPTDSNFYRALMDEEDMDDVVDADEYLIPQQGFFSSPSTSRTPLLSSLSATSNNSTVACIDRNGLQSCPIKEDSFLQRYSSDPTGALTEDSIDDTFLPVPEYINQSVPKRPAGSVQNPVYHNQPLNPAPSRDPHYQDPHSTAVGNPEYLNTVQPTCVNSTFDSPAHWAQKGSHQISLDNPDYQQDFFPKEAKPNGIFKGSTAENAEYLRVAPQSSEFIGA

molecular target: EGFR T790M L858R (Homo sapiens, UniProt P00533, L858R/T790M); experiment: biochemical; conditions: EGFR(T790M/L858R) Ki (μM)

Compound	Ki [µM]
CO[C@H]1CCN(c2nccc(Nc3cc4c(cn3)nc(C)n4C(C)C)n2)C[C@H]1F (racemic) [Example 524, (±)-[2-((cis)-3-Fluoro-4-methoxypiperidin-1-yl)pyrimidin-4-yl]-(1-isopropyl-2-methyl-1H-imidazo[4,5-c]pyridin-6-yl)amine]	0.00273

same assay, conditions: EGFR(T790M/L858R) Ki (μM), 5 μM ATP, 30 min, room temperature; apparent Ki (Morrison) converted by Cheng-Prusoff, Km of ATP 1.3 μM

Ki [µM]	Compound
0.17	O=S(=O)(C1CC1)n1cc(-c2nccc(Nc3cc4c(cn3)nc(CO)n4CCc3ccccc3)n2)cn1 [Example 486, (6-(2-(1-(cyclopropylsulfonyl)-1H-pyrazol-4-yl)pyrimidin-4-ylamino)-1-phenethyl-1H-imidazo[4,5-c]pyridin-2-yl)methanol]
0.00851	COC1CCN(c2nccc(Nc3cc4c(cn3)nc(C)n4-c3ccccc3)n2)CC1 [Example 494, N-(2-(4-Methoxypiperidin-yl)pyrimidin-4-yl)-2-methyl-1-phenyl-1H-imidazo[4,5-c]pyridin-6-amine]
0.0467	Cc1nc2cnc(Nc3ccnc(-c4cnoc4)n3)cc2n1C(C)C [Example 366]
0.173	CC(C)n1cnc2cnc(Nc3ccnc(OCC(C)(C)C(N)=O)n3)cc21 [Example 242]
0.27	Cc1nc2cnc(Nc3ccnc(-c4cnn(C5CCNC5)c4)n3)cc2n1C(C)C (racemic) [Example 398, (±)-1-isopropyl-2-methyl-N-(2-(1-(pyrrolidin-3-yl)-1H-pyrazol-4-yl)pyrimidin-4-yl)-1H-imidazo[4,5-c]pyridin-6-amine]
0.00108	CC[C@@H](C)n1cc(C(=O)NC2CCOCC2)c2cnc(Nc3ccnc(N4CC[C@H](OC)[C@H](F)C4)n3)cc21 (single isomer, unassigned) [Example 339]
0.287	Cc1nc2cnc(Nc3ccnc(NCC(C)(C)C#N)n3)cc2n1C(C)C [Example 523, 3-[4-(1-Isopropyl-2-methyl-1H-imidazo[4,5-c]pyridin-6-ylamino)pyrimidin-2-ylamino]-2,2-dimethylpropionitrile]
0.00728	COC1CCN(c2nccc(Nc3cc4c(cn3)c(-c3c[nH]cn3)cn4C(C)C)n2)CC1 [Example 403, 3-(1H-imidazol-4-yl)-1-isopropyl-N-(2-(4-methoxypiperidin-1-yl)pyrimidin-4-yl)-1H-pyrrolo[3,2-c]pyridin-6-amine]
0.306	CC(C)n1c(CO)nc2cnc(Nc3ccnc(N4CC[C@H](O)[C@H](C(F)(F)F)C4)n3)cc21 (racemic) [Example 626, (±)-(cis)-1-(4-(2-(Hydroxymethyl)-1-isopropyl-1H-imidazo[4,5-c]pyridin-6-ylamino)pyrimidin-2-yl)-3-(trifluoromethyl)piperidin-4-ol]
0.00169	CCC(C)n1cc(C(=O)N[C@H]2CCOC[C@H]2F)c2cnc(Nc3ccnc(N4CC[C@@H](O)[C@@H](F)C4)n3)cc21 (mixture of isomers) [Example 637, 1-(sec-butyl)-6-((2-((3S,4R)-3-fluoro-4-hydroxypiperidin-1-yl)pyrimidin-4-yl)amino)-N-((3SR, 4SR)-3-fluorotetrahydro-2H-pyran-4-yl)-1H-pyrrolo[3,2-c]pyridine-3-carboxamide]
0.00204	CCC(C)n1cc(C(=O)NC2CCN(C3COC3)CC2)c2cnc(Nc3ccnc(N4CC[C@@H](OC)[C@@H](F)C4)n3)cc21 (single isomer, unassigned) [Example 326]
0.0302	Cc1nc2cnc(Nc3ccnc(NCCc4cn[nH]c4)n3)cc2n1C(C)C [Example 420, N^2-(2-(1H-pyrazol-4-yl)ethyl)-N^4-(1-isopropyl-2-methyl-1H-imidazo[4,5-c]pyridin-6-yl)pyrimidine-2,4-diamine]
0.0393	COC1CCN(c2nccc(Nc3cc4c(cn3)nc(C)n4C(C)c3ccc(C#N)cc3)n2)CC1 (centres unmarked) [Example 353, 4-(1-(6-((2-(4-Methoxypiperidin-1-yl)pyrimidin-4-yl)amino)-2-methyl-1H-imidazo[4,5-c]pyridin-1-yl)ethyl)benzonitrile]
0.243	Cc1nc2cnc(Nc3ccnc(NCC(C)(C)CN)n3)cc2n1C(C)C [Example 518, N^2-(3-Amino-2,2-dimethylpropyl)-N^4-(1-isopropyl-2-methyl-1H-imidazo[4,5-c]pyridin-6-yl)pyrimidine-2,4-diamine]
0.0593	CN(CCO)c1nccc(Nc2cc3c(ccn3-c3ccccc3)cn2)n1 [Example 128, 2-{Methyl-[4-(1-phenyl-1H-pyrrolo[3,2-c]pyridin-6-ylamino)pyrimidin-2-yl]amino}ethanol]
0.0127	CC(C)n1c(CC(F)(F)F)nc2cnc(Nc3ccnc(-c4cnn(S(=O)(=O)C5CC5)c4)n3)cc21 [Example 558, [2-(1-Cyclopropanesulfonyl-1H-pyrazol-4-yl)-pyrimidin-4-yl]-[1-isopropyl-2-(2,2,2-trifluoro-ethyl)-1H-imidazo[4,5-c]pyridin-6-yl]amine]
0.709	CC(C)n1cnc2cnc(Nc3ccnc(N(C)CC4CCCO4)n3)cc21 (centres unmarked) [Example 173]
0.148	COC1CCN(c2nccc(Nc3cc4c(cn3)nc(C)n4Cc3ccc4[nH]cnc4c3)n2)CC1 [Example 359, 1-((1H-Benzo[d]imidazol-5-yl)methyl)-N-(2-(4-methoxypiperidin-1-yl)pyrimidin-4-yl)-2-methyl-1H-imidazo[4,5-c]pyridin-6-amine]
0.311	CC(C)n1cnc2cnc(Nc3ccnc(N4CCCC(O)C4)n3)cc21 (centres unmarked) [Example 168]

Ki [µM]	Compound
0.0054	COC1CCN(c2nccc(Nc3cc4c(cn3)c(C(=O)NC(C)C)cn4C(C)C)n2)CC1 [Example 120, N,1-diisopropyl-6-((2-(4-methoxypiperidin-1-yl)pyrimidin-4-yl)amino)-1H-pyrrolo[3,2-c]pyridine-3-carboxamide]
0.0761	Cc1nc2cnc(Nc3ccnc(-c4cnn(S(=O)(=O)c5ccn(C)n5)c4)n3)cc2n1C(C)C [Example 394, 1-isopropyl-2-methyl-N-(2-(1-((1-methyl-1H-pyrazol-3-yl)sulfonyl)-1H-pyrazol-4-yl)pyrimidin-4-yl)-1H-imidazo [4,5-c]pyridin-6-amine]
0.474	CC(C)n1cnc2cnc(Nc3ccnc(Nc4ccn(Cc5ccccc5)n4)n3)cc21 [Example 49, N^2-(1-Benzyl-1H-pyrazol-3-yl)-N4-(1-isopropyl-1H-imidazo[4,5-c]pyridin-6-yl)pyrimidine-2,4-diamine]
1.83	CC(C)n1cnc2cnc(Nc3ccnc(N4CC5(C4)CN(S(C)(=O)=O)C5)n3)cc21 [Example 38, 1-Isopropyl-N-(2-(6-(methylsulfonyl)-2,6-diazaspiro[3.3]heptan-2-yl)pyrimidin-4-yl)-1H-imidazo[4,5-c]pyridin-6-amine]
0.0145	Cc1n[nH]c(C)c1-c1cn(C(C)C)c2cc(Nc3ccnc(-c4cnn(S(=O)(=O)C5CC5)c4)n3)ncc12 [Example 345, N-(2-(1-(Cyclopropylsulfonyl)-1H-pyrazol-4-yl)pyrimidin-4-yl)-3-(3,5-dimethyl-1H-pyrazol-4-yl)-1-isopropyl-1H-pyrrolo[3,2-c]pyridin-6-amine]
1.17	CC(C)n1cnc2cnc(Nc3ccnc(N4CCC(CCN(C)C)CC4)n3)cc21 [Example 162, {2-[4-(2-Dimethylaminoethyl)-piperidin-1-yl]pyrimidin-4-yl}-(1-isopropyl-1H-imidazo[4,5-c]pyridin-6-yl)amine]
0.00161	CO[C@H]1CCN(c2nccc(Nc3cc4c(cn3)nc([C@@H](C)O)n4[C@@H](C)C(F)(F)F)n2)C[C@H]1F [Example 288, (R)-1-[6-[2-((3R,4S)-3-Fluoro-4-methoxypiperidin-1-yl)-pyrimidin-4-ylamino]-1-((S)-2,2,2-trifluoro-1-methylethyl)-1H-imidazo[4,5-c]pyridin-2-yl]ethanol]
0.224	CC(C)n1cnc2cnc(Nc3ccnc(-c4ccnc(N)c4)n3)cc21 [Example 240]
1	CC(C)n1cnc2cnc(Nc3ccnc(N4CCN(C5COC5)CC4)n3)cc21 [Example 81, 1-isopropyl-N-(2-(4-(oxetan-3-yl)piperazin-1-yl)pyrimidin-4-yl)-1H-imidazo[4,5-c]pyridin-6-amine]
1.49	CC(=O)NC1CN(c2nccc(Nc3cc4c(cn3)ncn4C(C)C)n2)C1 [Example 67, N-(1-(4-(1-isopropyl-1H-imidazo[4,5-c]pyridin-6-ylamino)pyrimidin-2-yl)azetidin-3-yl)acetamide]
0.0137	Cc1nc2cnc(Nc3ccnc(-c4cnn(S(=O)(=O)C5CCOC5)c4)n3)cc2n1C(C)C (racemic) [Example 406, (±)-1-isopropyl-2-methyl-N-(2-(1-((tetrahydrofuran-3-yl)sulfonyl)-1H-pyrazol-4-yl)pyrimidin-4-yl)-1H-imidazo[4,5-c]pyridin-6-amine]
0.0602	Cc1nc2cnc(Nc3ccnc(N4CC[C@H](O)C[C@@H]4C)n3)cc2n1C(C)C [Example 600]
1.16	CC(C)n1cnc2cnc(Nc3ccnc(N4CC(NC(N)=O)C4)n3)cc21 [Example 76, 1-(1-(4-(1-isopropyl-1H-imidazo[4,5-c]pyridin-6-ylamino)pyrimidin-2-yl)azetidin-3-yl)urea]
0.112	Cc1nc2cnc(Nc3ccnc(N4CC[C@H](C#N)C4)n3)cc2n1C(C)C [Example 679]
0.0385	Cc1nc2cnc(Nc3ccnc(N4CC[C@H](F)C4)n3)cc2n1C(C)C [Example 592, [2-((S)-3-Fluoropyrrolidin-1-yl)pyrimidin-4-yl]-(1-isopropyl-2-methyl-1H-imidazo[4,5-c]pyridin-6-yl)amine]
0.00207	COC1CCN(c2nccc(Nc3cc4c(cn3)c(-c3cnn(CC(N)=O)c3)cn4C(C)C)n2)CC1 [Example 410, 2-(4-(1-isopropyl-6-((2-(4-methoxypiperidin-1-yl)pyrimidin-4-yl)amino)-1H-pyrrolo[3,2-c]pyridin-3-yl)-1H-pyrazol-1-yl)acetamide]
0.0164	Cc1nc2cnc(Nc3ccnc(C4=CCCCC4)n3)cc2n1C(C)C [Example 275, (2-Cyclohex-1-enylpyrimidin-4-yl)-(1-isopropyl-2-methyl-1H-imidazo[4,5-c]pyridin-6-yl)amine]
0.0742	CC(C)n1c(OC2CNC2)nc2cnc(Nc3ccnc(-c4cn[nH]c4)n3)cc21 [Example 285, [2-(Azetidin-3-yloxy)-1-isopropyl-1H-imidazo[4,5-c]pyridin-6-yl]-[2-(1H-pyrazol-4-yl)pyrimidin-4-yl]amine]
